From ChEMBL document CHEMBL1129839, “The preparation and sar of 4-(anilino), 4-(phenoxy), and 4-(thiophenoxy)-quinazolines: Inhibitors of p56lck and EGF-R tyrosine kinase activity” (Bioorg Med Chem Lett, 1997) come the findings set out here.

Amino acid sequences for entries named in this document (tags omitted).
UniProt P00533, whole entry: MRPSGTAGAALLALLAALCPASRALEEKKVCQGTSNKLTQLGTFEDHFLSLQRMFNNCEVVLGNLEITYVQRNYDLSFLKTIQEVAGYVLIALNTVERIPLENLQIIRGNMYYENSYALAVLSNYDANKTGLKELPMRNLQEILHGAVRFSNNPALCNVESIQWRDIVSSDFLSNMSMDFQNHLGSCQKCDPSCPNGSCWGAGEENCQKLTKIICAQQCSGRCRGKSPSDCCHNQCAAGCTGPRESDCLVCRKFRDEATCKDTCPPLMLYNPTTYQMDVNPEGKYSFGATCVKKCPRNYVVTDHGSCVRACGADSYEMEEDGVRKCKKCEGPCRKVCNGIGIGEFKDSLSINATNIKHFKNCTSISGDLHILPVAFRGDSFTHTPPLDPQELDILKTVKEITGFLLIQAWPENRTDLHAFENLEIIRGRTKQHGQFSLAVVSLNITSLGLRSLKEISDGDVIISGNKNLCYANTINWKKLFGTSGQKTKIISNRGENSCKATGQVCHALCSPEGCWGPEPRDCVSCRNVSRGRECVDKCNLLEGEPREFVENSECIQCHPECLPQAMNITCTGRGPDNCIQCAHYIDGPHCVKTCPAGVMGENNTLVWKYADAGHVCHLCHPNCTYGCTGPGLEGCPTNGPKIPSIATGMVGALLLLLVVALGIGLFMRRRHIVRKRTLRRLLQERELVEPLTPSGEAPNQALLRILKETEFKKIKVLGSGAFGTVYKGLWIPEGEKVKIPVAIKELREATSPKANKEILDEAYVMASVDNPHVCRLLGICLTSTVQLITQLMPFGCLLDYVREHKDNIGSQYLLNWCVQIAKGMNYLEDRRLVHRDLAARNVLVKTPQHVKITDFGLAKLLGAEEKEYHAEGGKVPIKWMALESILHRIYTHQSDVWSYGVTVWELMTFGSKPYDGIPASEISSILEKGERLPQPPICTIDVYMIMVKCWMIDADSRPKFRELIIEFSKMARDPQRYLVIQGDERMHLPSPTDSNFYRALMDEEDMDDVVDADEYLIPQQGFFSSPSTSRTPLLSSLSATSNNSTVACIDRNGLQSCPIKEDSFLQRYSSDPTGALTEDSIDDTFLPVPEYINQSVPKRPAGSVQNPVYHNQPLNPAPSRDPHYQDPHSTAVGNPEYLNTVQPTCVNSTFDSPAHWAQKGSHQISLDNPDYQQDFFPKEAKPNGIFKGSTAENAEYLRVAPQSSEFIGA

For this assay, the target named is Epidermal growth factor receptor (Homo sapiens, UniProt P00533).

For the compound `COc1cc2ncnc(Nc3cccc(Cl)c3)c2cc1OC`, the concentration for half-maximal inhibition (IC50) (in general, the concentration at which inhibition is half-maximal) was determined as 30 nM.

The compound `COc1cc2ncnc(Nc3cccc(F)c3)c2cc1OC` displayed a half-inhibitory concentration (IC50) of 25 nM.
